Source: patent US5948635A, “Totally Synthetic Affinity Reagents” (University of North Carolina at Chapel Hill, priority 1995, dated 1999)

Chains of the proteins cited; added tags and fusions are not shown. Residues count along the entry.
UniProt P22629, 25-183: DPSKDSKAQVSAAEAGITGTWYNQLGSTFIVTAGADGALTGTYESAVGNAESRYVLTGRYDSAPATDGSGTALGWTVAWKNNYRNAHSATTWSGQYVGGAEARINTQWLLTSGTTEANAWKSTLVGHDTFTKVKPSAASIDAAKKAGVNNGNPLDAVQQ

Biological target: T1, streptavidin (Streptomyces avidinii, UniProt P22629)
T1 construct: purchased Advanced Magnetics, Cambridge, Mass
Assay: Inhibition of TSAR binding to streptavidin by biotin and biotin analogs
Method: Specificity of the binding of the identified proteins for streptavidin was investigated by evaluating inhibition of binding by biotin and by a number of biotin analogs, including diaminobiotin, immunobiotin, lipoic acid and imidazalidone. Four representative TSARs, pictured in Table 9, were evaluated, i.e., SA-1,-2, -4 and -14 (SEQ ID NOs. 116, 114, 104 and 117). […] IC50 values of about 0.2, 3, 1050 and 5000 μM, respectively, were observed.

## TWDFTRSSLPAGDTSFTSPGSYSVMTRSCGISCVPAEV [SA-14]
  inhibition of TSAR binding to streptavidin by biotin and all the biotin analogs tested: completely inhibited
